Assay results as given in article PMC10460844, “Real‐Time Monitoring of Multitarget Antimicrobial Mechanisms of Peptoids Using Label‐Free Imaging with Optical Diffraction Tomography” (Advanced Science, 2023).

System: rat erythrocytes
Assay: Hemolysis assay
Assay type: cell-based
Details: Table S2; 10% hemolysis in rat erythrocytes, PBS pH 7.4, 37 °C 60 min; mean of triplicate
Method: The hemolysis assay was performed using rat erythrocytes in phosphate‐buffered saline (PBS), as reported by Mendes et al.^[ [45] ^] Animal studies were approved by the Laboratory Animal Resource Center of Gwangju Institute of Science and Technology. Blood was collected from a 13‐week‐old male Sprague‐Dawley rat in tubes containing 158 USP units of sodium heparin to prevent coagulation and centrifuged at 1000 rpm for 10 min at 4 °C. Plasma was removed carefully and erythrocyte pellets were washed three times with PBS (35 mM phosphate, pH 7.4, 150 mM NaCl). Next, 150 µL of a 10% erythrocyte suspension was mixed with 50 µL of serially diluted peptoids (0–100 µM) in a 96‐well black polypropylene plates (Greiner, Kremsmünster, Austria). […] Aliquots (150 µL) of the supernatant were transferred to fresh 96‐well plates, and the absorbance of each well was measured at 540 nm using a microplate reader. Hemolysis induced by peptoids was calculated as the percentage value of Triton X‐100 lysed cells. The percentage of hemolysis by the extracts was calculated according to the following formula: % hemolysis = [(Abs 540 nm in the peptoid solution – Abs 540 nm in PBS) / (Abs 540 nm in 1% Triton X‐100 – Abs 540 nm in PBS)] × 100. […]

SMILES: CC[C@H](C)[C@H](NC(=O)CN)C(=O)NCC(=O)N[C@@H](C)C(=O)N[C@H](C(=O)N[C@@H](CC(C)C)C(=O)N[C@@H](CCCCN)C(=O)N[C@H](C(=O)N[C@@H](CC(C)C)C(=O)N[C@H](C(=O)N[C@H](C(=O)NCC(=O)N[C@@H](CC(C)C)C(=O)N1CCC[C@H]1C(=O)N[C@@H](C)C(=O)N[C@@H](CC(C)C)C(=O)N[C@H](C(=O)N[C@@H](CO)C(=O)N[C@@H](Cc1c[nH]c2ccccc12)C(=O)N[C@H](C(=O)N[C@@H](CCCCN)C(=O)N[C@@H](CCCNC(=N)N)C(=O)N[C@@H](CCCCN)C(=O)N[C@@H](CCCNC(=N)N)C(=O)N[C@@H](CCC(N)=O)C(=O)N[C@@H](CCC(N)=O)C(N)=O)[C@@H](C)CC)[C@@H](C)CC)[C@@H](C)O)[C@@H](C)O)C(C)C)C(C)C [Melittin, reference compound]
- HC10: < 3.1 µM
